In the assay the target is Coagulation factor X (Homo sapiens, UniProt P00742). Description: In vitro inhibition of Coagulation factor Xa.

By UniProt entry, the sequences of proteins in these tests, tags left out. Residues count along the entry.
UniProt P00742, 41-179 limits assumed: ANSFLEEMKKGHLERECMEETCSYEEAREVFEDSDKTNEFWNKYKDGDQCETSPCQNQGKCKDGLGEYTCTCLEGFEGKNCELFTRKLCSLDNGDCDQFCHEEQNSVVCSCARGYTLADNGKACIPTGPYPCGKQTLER
UniProt P00742, 235-488 limits assumed: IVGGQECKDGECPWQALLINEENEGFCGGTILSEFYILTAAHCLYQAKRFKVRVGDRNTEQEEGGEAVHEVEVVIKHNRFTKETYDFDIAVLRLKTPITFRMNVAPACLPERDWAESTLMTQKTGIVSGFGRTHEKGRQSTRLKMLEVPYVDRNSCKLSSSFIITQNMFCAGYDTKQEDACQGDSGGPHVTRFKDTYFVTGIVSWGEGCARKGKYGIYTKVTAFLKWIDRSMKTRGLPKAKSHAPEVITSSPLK

This note sets out measurements from ChEMBL document CHEMBL1135855, “4-amidinobenzylamine-based inhibitors of urokinase” (Bioorg Med Chem Lett, 2002).

Turning to `CC(C)COC(=O)OC[C@@H](NS(=O)(=O)Cc1ccccc1)C(=O)NCC(=O)NCc1ccc(C(=N)N)cc1`, the affinity corresponds to a Ki of 500 nM.

The term Ki denotes the dissociation constant of the complex between target and ligand, obtained from inhibition or displacement.
